The values below come from patent US9775844B2, “Heterocyclic compounds and uses thereof” (Infinity Pharmaceuticals, Inc., priority 2014, dated 2017).

By UniProt entry, the sequences of proteins in these tests, tags left out. Where a name states a change or a piece, a line headed by the entry shows the natural chain unless it says otherwise.
UniProt O00329: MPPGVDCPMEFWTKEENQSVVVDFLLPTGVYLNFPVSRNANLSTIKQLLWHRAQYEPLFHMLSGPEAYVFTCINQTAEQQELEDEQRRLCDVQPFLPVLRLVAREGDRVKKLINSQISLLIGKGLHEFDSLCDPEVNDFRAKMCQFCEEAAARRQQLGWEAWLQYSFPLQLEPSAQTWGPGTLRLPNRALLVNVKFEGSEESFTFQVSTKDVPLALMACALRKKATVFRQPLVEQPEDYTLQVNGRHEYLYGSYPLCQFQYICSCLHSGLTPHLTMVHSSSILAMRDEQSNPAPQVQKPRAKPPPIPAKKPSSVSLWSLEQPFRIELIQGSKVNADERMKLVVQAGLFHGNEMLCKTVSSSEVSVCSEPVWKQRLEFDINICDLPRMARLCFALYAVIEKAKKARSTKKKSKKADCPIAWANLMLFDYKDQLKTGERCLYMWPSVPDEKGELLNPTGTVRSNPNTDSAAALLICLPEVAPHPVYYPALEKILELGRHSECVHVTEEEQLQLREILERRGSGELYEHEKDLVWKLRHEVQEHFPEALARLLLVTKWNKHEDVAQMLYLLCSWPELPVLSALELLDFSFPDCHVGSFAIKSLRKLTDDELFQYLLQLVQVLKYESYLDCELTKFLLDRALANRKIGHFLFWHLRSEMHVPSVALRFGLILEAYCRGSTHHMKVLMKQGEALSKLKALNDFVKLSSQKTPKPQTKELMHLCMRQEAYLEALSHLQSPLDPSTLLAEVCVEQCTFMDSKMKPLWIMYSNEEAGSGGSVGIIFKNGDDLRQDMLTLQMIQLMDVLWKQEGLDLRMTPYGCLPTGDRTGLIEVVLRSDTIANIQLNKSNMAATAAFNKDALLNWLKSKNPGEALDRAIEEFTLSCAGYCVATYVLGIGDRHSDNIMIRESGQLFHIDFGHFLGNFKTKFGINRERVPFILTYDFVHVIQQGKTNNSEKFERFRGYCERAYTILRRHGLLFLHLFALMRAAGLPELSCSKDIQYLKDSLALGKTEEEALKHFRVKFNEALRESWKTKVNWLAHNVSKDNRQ
UniProt P48736: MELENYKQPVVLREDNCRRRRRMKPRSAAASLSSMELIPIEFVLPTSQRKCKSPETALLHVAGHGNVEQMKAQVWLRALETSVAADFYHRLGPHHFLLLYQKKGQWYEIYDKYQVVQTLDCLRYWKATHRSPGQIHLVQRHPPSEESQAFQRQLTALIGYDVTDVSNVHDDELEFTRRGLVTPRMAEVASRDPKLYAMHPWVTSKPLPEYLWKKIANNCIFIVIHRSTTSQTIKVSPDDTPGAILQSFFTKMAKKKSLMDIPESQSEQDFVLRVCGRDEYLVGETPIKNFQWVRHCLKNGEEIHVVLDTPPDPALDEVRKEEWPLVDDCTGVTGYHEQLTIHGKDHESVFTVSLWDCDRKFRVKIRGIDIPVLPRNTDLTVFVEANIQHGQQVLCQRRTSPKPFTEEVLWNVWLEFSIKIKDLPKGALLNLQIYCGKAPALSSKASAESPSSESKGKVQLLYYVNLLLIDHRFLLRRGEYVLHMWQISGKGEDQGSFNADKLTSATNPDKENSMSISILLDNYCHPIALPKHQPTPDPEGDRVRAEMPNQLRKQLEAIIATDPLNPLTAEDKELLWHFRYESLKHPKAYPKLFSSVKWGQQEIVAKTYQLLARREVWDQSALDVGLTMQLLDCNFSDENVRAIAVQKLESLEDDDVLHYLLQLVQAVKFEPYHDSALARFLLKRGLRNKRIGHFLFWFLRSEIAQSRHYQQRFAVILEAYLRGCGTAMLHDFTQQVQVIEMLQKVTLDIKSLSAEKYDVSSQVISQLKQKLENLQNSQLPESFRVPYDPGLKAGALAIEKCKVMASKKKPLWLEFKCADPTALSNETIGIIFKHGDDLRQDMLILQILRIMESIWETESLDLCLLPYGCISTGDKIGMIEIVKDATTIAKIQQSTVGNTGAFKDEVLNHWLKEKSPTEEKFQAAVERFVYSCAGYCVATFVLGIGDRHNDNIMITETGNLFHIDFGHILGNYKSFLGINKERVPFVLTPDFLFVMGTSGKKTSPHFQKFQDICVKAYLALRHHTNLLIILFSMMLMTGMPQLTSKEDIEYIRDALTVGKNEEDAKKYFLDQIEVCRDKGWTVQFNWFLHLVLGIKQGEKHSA
UniProt P42336, whole entry: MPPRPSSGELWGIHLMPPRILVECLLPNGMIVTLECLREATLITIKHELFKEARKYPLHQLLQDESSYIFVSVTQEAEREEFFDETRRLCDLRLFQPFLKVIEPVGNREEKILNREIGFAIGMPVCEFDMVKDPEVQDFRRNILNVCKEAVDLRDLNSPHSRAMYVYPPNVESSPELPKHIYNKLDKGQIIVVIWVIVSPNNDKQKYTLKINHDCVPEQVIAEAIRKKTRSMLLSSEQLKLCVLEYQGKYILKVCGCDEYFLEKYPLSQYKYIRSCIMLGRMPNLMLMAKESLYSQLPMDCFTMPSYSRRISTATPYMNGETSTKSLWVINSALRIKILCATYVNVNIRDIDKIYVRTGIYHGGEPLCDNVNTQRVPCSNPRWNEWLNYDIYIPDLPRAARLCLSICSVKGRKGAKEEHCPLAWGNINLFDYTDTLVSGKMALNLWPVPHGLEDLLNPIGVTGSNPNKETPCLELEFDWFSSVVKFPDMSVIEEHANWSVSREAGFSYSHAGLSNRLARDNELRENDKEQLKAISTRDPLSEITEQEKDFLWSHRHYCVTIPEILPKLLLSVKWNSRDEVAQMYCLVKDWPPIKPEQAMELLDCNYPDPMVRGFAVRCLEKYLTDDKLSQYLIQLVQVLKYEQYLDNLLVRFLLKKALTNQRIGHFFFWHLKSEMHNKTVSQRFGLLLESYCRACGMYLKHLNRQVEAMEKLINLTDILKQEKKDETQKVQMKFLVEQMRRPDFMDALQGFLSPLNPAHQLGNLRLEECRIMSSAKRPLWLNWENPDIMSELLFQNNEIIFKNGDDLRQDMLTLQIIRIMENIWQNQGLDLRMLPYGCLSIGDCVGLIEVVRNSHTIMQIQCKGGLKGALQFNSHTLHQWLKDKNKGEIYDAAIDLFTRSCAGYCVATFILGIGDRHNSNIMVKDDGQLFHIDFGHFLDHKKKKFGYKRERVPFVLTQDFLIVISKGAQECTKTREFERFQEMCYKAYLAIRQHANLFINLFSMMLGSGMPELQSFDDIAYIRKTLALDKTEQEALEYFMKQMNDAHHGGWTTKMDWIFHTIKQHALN
UniProt P42336, whole entry H1047R: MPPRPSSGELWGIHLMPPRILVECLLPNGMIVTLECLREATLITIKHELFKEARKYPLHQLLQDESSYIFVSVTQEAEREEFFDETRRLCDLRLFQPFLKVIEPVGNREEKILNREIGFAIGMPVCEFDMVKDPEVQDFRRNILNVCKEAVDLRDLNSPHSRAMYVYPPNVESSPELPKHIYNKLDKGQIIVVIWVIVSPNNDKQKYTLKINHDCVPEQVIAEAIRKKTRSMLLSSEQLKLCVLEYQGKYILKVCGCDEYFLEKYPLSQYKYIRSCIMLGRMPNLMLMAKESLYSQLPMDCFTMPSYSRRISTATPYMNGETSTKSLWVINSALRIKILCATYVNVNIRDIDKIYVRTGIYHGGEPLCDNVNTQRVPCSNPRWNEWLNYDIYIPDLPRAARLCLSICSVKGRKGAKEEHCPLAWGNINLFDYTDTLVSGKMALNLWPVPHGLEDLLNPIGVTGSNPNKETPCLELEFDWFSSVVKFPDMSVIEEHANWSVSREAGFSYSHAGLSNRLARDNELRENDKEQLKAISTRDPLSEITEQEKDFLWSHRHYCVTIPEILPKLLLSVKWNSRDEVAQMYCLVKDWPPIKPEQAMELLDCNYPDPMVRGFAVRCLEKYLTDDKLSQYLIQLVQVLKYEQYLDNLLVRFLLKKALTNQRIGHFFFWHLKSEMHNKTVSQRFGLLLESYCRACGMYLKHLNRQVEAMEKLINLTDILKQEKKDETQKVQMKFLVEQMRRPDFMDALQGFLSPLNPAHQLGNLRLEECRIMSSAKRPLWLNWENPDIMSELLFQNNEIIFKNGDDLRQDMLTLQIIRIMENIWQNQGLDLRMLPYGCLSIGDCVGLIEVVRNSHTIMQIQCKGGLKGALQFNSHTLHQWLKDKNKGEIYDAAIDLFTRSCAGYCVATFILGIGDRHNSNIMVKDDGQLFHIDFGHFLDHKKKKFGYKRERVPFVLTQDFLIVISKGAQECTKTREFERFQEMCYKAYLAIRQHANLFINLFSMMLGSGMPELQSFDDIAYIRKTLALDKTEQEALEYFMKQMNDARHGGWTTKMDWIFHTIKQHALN
UniProt Q9JHG7: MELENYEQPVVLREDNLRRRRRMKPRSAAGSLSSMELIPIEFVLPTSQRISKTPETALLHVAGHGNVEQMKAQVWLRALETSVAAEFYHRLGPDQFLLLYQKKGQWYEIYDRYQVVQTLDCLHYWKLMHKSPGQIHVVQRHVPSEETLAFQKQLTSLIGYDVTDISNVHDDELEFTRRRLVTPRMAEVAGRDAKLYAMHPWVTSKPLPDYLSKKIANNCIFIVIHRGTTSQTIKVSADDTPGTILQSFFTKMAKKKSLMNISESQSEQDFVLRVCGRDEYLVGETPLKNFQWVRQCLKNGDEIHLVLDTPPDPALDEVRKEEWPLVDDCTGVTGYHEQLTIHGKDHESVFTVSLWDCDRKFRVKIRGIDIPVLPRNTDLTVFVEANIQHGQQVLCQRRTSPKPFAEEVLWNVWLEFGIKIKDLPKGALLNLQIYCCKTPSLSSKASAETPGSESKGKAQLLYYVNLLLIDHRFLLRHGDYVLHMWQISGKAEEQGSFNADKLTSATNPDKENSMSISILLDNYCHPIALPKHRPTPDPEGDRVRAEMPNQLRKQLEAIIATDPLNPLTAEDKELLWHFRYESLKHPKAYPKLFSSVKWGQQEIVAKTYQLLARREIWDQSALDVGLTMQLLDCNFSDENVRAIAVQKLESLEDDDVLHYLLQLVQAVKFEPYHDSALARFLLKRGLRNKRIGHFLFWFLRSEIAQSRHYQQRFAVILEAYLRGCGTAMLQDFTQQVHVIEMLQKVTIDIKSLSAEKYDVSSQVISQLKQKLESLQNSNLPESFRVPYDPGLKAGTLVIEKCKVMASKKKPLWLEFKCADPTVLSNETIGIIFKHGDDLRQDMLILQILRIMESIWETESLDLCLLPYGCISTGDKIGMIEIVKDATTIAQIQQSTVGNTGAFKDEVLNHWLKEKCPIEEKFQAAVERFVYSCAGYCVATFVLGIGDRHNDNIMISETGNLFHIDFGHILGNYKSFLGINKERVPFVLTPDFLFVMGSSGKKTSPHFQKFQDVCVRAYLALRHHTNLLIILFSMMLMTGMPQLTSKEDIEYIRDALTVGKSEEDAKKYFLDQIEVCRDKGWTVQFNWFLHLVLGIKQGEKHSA
UniProt P42338: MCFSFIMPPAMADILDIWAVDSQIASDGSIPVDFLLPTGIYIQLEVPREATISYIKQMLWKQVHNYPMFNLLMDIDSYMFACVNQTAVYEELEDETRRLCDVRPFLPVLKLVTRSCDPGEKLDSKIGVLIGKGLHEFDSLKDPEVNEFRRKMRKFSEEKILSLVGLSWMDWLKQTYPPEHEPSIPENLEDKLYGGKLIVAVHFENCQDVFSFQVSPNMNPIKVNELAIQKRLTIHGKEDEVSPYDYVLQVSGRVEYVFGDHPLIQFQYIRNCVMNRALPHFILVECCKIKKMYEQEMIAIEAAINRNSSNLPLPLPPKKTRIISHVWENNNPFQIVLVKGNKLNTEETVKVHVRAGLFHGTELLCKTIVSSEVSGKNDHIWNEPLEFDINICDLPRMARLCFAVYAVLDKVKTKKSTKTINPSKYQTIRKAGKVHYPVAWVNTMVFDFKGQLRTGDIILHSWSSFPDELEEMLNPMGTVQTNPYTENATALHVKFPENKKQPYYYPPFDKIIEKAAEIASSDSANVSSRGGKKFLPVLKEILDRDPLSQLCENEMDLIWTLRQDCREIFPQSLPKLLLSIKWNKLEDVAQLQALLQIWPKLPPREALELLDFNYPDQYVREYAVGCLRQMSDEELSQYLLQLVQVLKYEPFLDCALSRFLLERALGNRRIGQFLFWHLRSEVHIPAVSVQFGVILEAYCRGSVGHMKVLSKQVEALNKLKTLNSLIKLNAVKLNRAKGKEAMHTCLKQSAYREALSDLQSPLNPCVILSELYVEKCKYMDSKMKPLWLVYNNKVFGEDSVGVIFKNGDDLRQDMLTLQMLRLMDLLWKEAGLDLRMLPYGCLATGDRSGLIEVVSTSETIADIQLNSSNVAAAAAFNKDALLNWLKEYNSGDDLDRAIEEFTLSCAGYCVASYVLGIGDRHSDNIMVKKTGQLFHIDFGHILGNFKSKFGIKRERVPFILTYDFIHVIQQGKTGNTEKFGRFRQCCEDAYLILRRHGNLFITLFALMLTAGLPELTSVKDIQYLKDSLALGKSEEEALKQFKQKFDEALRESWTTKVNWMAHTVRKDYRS

By IC50 is commonly meant the concentration needed to halve the response being measured.

In assay [1] the target is PI3K δ (Homo sapiens (Human), UniProt O00329). Briefly: PI3-Kinase Promega ADP-Glo Max assay. Type of assay: biochemical.
In assay [2] the target is PI3K-δ in RAJI cells (Homo sapiens (Human), UniProt O00329). Briefly: RAJI p110 δ assay (PI3K-δ selective cellular assay, phospho-AKT).
For assay [3], the target named is PI3K γ (Homo sapiens (Human), UniProt P48736). The assay can be described thus: PI3-Kinase Promega ADP-Glo Max assay. For orientation: In ADP-Glo the light output rises with the ADP produced.
In assay [4] the target is PI3K α (Homo sapiens (Human), UniProt P42336). Briefly: PI3-Kinase Promega ADP-Glo Max assay. Type of assay: biochemical.
In assay [5] the target is PI3K-γ in RAW264.7 macrophages (Mus musculus (Mouse), UniProt Q9JHG7). Briefly: Raw264.7 p110 γ assay (PI3K-γ selective cellular assay, C5a-stimulated phospho-AKT). Conditions: Raw264.7 p110 γ assay IC50.
Assay [6] addresses PI3K β (Homo sapiens (Human), UniProt P42338). Briefly: PI3-Kinase Promega ADP-Glo Max assay. Type of assay: biochemical.
Assay [7] deals with PI3K-α in SKOV-3 cells (Homo sapiens (Human), UniProt P42336, H1047R). The assay can be described thus: PI3K-α selective cellular assay (phospho-AKT). Type of assay: cell-based. From the text: A compound's ability in selectively inhibiting PI3K-α can be assessed using SKOV-3 cells, i.e., human ovarian carcinoma cell line. Briefly, SKOV-3 cells, in which mutant PI3Kα is constitutively active, can be treated with test compounds.

Setting [8] is: RAJI p110 δ assay IC50, phospho-AKT.

Where two headings read alike, the source gives them in different places.

As for `C[C@H](NC(=O)c1c(N)nn2cccnc12)c1cc2cccc(C#Cc3cnn(C)c3)c2c(=O)n1-c1ccccc1` [Compound 4], the values for the 50% inhibitory concentration (IC50) in assay [1] and in assay [2] (setting [8]) were 5000 to 10000 nM and 100 to 500 nM, respectively. The compound `C[C@H](NC(=O)c1c(N)nn2cccnc12)c1cc2cccc(C#Cc3ccc(=O)[nH]c3)c2c(=O)n1-c1ccccc1` [Compound 33] yielded an IC50 in assay [3] of 1 to 100 nM. As for `C[C@H](NC(=O)c1c(N)nn2cccnc12)c1cc2cccc(/C=C/c3cnn(C)c3)c2c(=O)n1-c1ccccc1` [Compound 52], the IC50 is 5000 to 10000 nM in assay [1] and 500 to 1000 nM in assay [2] (setting [8]). For `C[C@H](NC(=O)c1c(N)nn2cccnc12)c1cc2cccc(/C=C\c3cnn(C)c3)c2c(=O)n1-c1ccccc1` [Compound 53], in that order: 5000 to 10000 nM and 500 to 1000 nM. As to `C[C@H](NC(=O)c1c(N)nn2cccnc12)c1cc2cccc(C#Cc3cnn(C)c3C(F)(F)F)c2c(=O)n1-c1ccccc1` [Compound 69], the half-inhibitory concentration (IC50) in assay [4] was in the range of 5000 to 10000 nM; in assay [5], 100 to 10000 nM; in assay [6], 5000 to 10000 nM. As to `C[C@H](NC(=O)c1c(N)nn2cccnc12)c1cc2cccc(C#Cc3cn(C)cn3)c2c(=O)n1-c1ccccc1` [Compound 81], the 50% inhibitory concentration (IC50) in assay [3] was in the range of 1 to 100 nM. In the case of `[2H]c1c([2H])c([2H])c(-n2c([C@H](C)NC(=O)c3c(N)nn4cccnc34)cc3cccc(C#Cc4cnn(C)c4)c3c2=O)c([2H])c1[2H]` [Compound 110], the IC50 in assay [1] and in assay [4] (read-out: PI3K α IC50) was 5000 to 10000 nM each time. As for `C[C@H](NC(=O)c1c(N)nn2cccnc12)c1cc2cccc(C#Cc3cnn(C)c3)c2c(=O)n1-c1ccccc1` [Compound BB], the concentration for half-maximal inhibition (IC50) stood at 197 nM in assay [2] (Cellular IC50 δ) and 873 nM in assay [7].
